Data reported in ChEMBL document CHEMBL5344474, “Molecular editing of NSC-666719 enabling discovery of benzodithiazinedioxide-guanidines as anticancer agents” (RSC Med Chem, 2024).

Assays:
Test in all cases: cells
Settings in all cases: Homo sapiens, MCF7, 48 h, read-out: Activity
MCF7 [1] = system: MCF7
MCF7 [2] = system: MCF7; remark: listed apart in the source
MCF7 [3] = system: MCF7; remark: listed apart in the source

Compound `Cc1cc2c(cc1Cl)SC(/N=C(/N)Nc1cccc3ccccc13)=NS2(=O)=O` has a viability at 0.5 µM (MCF7 [1]) of 67.4%, a viability at 1 µM (MCF7 [2]) of 27.2% and a viability at 2 µM (MCF7 [3]) of 17.2%.
